{"source": "patent US20080286202A1", "about": "“Method of Diagnosing Prodromal Forms of Diseases Associated With Amyloid Deposition” (priority 2004, published 2008)", "origin": "cited, not measured here", "conditions": "literature values of neuroreceptor-binding radiotracers"}
{"smiles": "CO[C@]12CC[C@@]3(C[C@@H]1C(C)(C)O)[C@H]1Cc4ccc(O)c5c4[C@@]3(CCN1CC1CC1)[C@H]2O5", "values": [{"measurement": "f1 (free level in plasma)", "value": 0.30}]}
